In assay [1] the test system is isolated guinea pig right atria. In words: Chronotropic effect on isolated guinea pig right atria (atrial rate). The arrangement: species or system guinea pig (male Hartley). The following applies: read-out: EC50 Atrial Rate, determined by linear regression of percent maximum response; % of rate produced by 1 μM forskolin; tested up to 1000 nM; r(log-lin) = 0.9453-0.9968.

Assay [2] relates to isolated guinea pig tracheal strips. As to the kind of experiment: Relaxation of histamine-contracted isolated guinea pig tracheal strips. The arrangement: species or system guinea pig (male Hartley). To be noted: read-out: EC50 Tracheal Relaxation, determined by linear regression of percent maximum response; % of maximum relaxation by 1 mM papaverine; tested up to 1000 nM; r(log-lin) = 0.9453-0.9968; (S)-salmeterol extrapolated from three data points.

Drawing on patent US6254882A, “Methods and compositions for treating pulmonary disorders using optically pure (S)--salmeterol” (Sepracor Inc., priority 1997, dated 2001), this text covers EC50 for three compounds.

Take `COc1ccc(C[C@H](C)NC[C@@H](O)c2ccc(O)c(NC=O)c2)cc1`: the EC50 is greater than 10000 nM in assay [1] and 3460 nM in assay [2].
In the same order, the values of `COc1ccc(C[C@@H](C)NC[C@H](O)c2ccc(O)c(NC=O)c2)cc1` are 6.3 nM and 2.5 nM.
As for `COc1ccc(C[C@@H](C)NC[C@H](O)c2ccc(O)c(NC=O)c2)cc1` (relative stereo), the EC50 in assay [1] is 5.7 nM; in assay [2], 9.4 nM.

In general, EC50 refers to the midpoint of the concentration-response curve.
